{"source": "patent EP4843994A1", "about": "“NOVEL PEPTIDE HAVING MUSCLE FORMATION-PROMOTING ACTIVITY, ANTI-OBESITY ACTIVITY AND ANTI-DIABETIC ACTIVITY AND USES THEREOF” (dated 2026)", "key": {"C2C12 cells [1]": {"test_system": "C2C12 cells", "assay": "Expression of proliferation-related marker genes in myoblasts (RT-PCR)", "details": "peptide 5 µM, 50 µM, one hour", "experimental": "C2C12 cells (mouse-derived myoblasts) were cultured in DMEM medium containing 1% P/S and 10% FBS. When cell confluency reached 70 to 80%, cells were seeded into 6-well culture plates at a concentration of 5 x 10^5 cells/2 ml. On the next day, the medium was replaced with serum-free DMEM (1% P/S), and after about 4 hours, was treated with peptides (5 µM, 50 µM), and one hour after peptide treatment, the cells were harvested and RNA was extracted using Trizol (Thermo Fisher Scientific, USA). DNA complementary to the extracted RNA was synthesized using TOPScript™ RT DryMIX (enzynomics, Korea), and then polymerase chain reaction (PCR) was performed on the genes of factors (markers) involved in cell proliferation using TOPsimple™ DryMIX-nTaq (enzynomics, Korea). Next, the reaction products were run on a 1.5% agarose gel to compare the mRNA expression levels of the aforementioned factors (markers) for each sample. The primer sequences for the genes used in the PCR are listed in Table 2 below, and the GAPDH gene was used as a control group."}, "3T3-L1 cells [2]": {"test_system": "3T3-L1 cells", "assay": "Expression of insulin resistance and sensitivity related proteins in adipocytes (Western blot)", "details": "3T3-L1 cells differentiated with MDI cocktail, peptide 5 µM, 50 µM, 48 hours", "experimental": "3T3-L1 cells (preadipocytes, American Type Culture Collection) were cultured in DMEM medium containing 2% BCS (Bovine Calf Serum) (Welgene, Korea). To differentiate 3T3-L1 cells into adipocytes, they were seeded into 12-well culture plates at a concentration of 1 x 10^5 cells/well, and when they became confluent (Day=2), the medium was changed once more and cultured for an additional 48 hours. After 48 hours (Day=0), the culture medium was replaced with DMEM medium containing 10% FBS, 1% P/S, 1 µg/ml insulin (Sigma, USA), 0.5 mM isobutylmethylxanthine (IBMX) (Sigma, USA) and 1 µM Dexamethasone (Sigma, USA) and cultured. After 2 days (Day=2), the medium was replaced with DMEM containing 10% FBS, 1% P/S, and 1 µg/ml insulin, and cultured. After 3 days (Day=5), the medium was replaced with one containing only 10% FBS and 1% P/S, and peptides (5 µM, 50 µM) were added and cultured for 48 hours. After culture, lysis buffer was added to lyse the cells, and the protein was obtained by centrifugation at 4°C and 12,000 rpm for 30 minutes. The obtained protein was then quantified using a BCA kit. Subsequently, the protein was electrotransferred onto a membrane after performing SDS-PAGE (sodium dodecyl sulfate-polyacrylamide gel electrophoresis). The membrane to which the protein was attached was blocked by treatment with 5% skim milk, and then the primary antibody was incubated overnight at 4°C. The primary antibodies used are as follows: anti-pIRS (Tyr612) antibody (Invitrogen, USA); anti-GLUT4 antibody (Invitrogen, USA); anti-pIRS (Ser302) antibody (Cell signaling Technology, USA); anti-P70S6K antibody (Cell signaling Technology, USA); anti-β-actin antibody (Santa Cruz, USA). The reaction mixture was washed with PBS-T, then reacted with secondary antibodies (Peroxidase-conjugated AffiniPure Goat Anti-Rabbit IgG (H+L), Jackson immunoResearch, USA; Peroxidase-conjugated AffiniPure Goat Anti-Mouse IgG (H+L), Jackson immunoResearch, USA) at room temperature for 1 hour, washed again with PBS-T, and then visualized by treatment with a Western detection reagent (Elpis Biotech, Daejeon, Korea) using Gel Doc (Bio-Rad, Hercules, CA, USA).\nIn the above experiment, differentiation was induced in 3T3-L1 preadipocytes with an MDI cocktail for 5 days, and then the insulin sensitivity-promoting effect was confirmed by measuring the expression levels of insulin sensitivity or resistance proteins upon peptide treatment. As a result of the experiment, peptide treatment in 3T3-L1 cells increased the expression levels of pIRS(Tyr612) and GLUT4, which are factors related to insulin sensitivity, while decreasing the expression levels of pIRS(Ser302) and p70S6K, which are factors related to insulin resistance (FIGS. 14A and 14B)."}, "3T3-L1 cells [3]": {"test_system": "3T3-L1 cells", "assay": "Expression of fatty acid oxidation-related genes in insulin resistance-induced adipocytes (RT-PCR)", "details": "3T3-L1 adipocytes, 350 µM oleic acid (insulin resistance environment), peptide 5 µM, 50 µM, 48 hours", "experimental": "3T3-L1 cells (preadipocytes, American Type Culture Collection) were cultured in DMEM medium containing 2% BCS (Bovine Calf Serum) (Welgene, Korea). To differentiate 3T3-L1 cells into adipocytes, cells were seeded into 12-well culture plates at a concentration of 1 x 10^5 cells/well, and when the cells became confluent (Day=2), the medium was replaced once more and cultured for an additional 48 hours. After 48 hours (Day=0), the culture medium was replaced with DMEM medium containing 10% FBS, 1% P/S, 1 µg/ml insulin (Sigma, USA), 0.5 mM isobutylmethylxanthine (IBMX) (Sigma, USA), and 1 µM Dexamethasone (Sigma, USA), and cultured. After 2 days (Day=2), the medium was replaced with DMEM medium containing 10% FBS, 1% P/S, and 1 µg/ml insulin, and cultured. After 3 days (Day=5), the medium was replaced with one containing only 10% FBS and 1% P/S, and an insulin resistance environment was induced by treating with 350 µM oleic acid (Sigma, St. Louis, MO, USA) for 24 hours. After 24 hours of induction, the DMEM medium (10% FBS, 1% BSA) supplemented with 350 µM oleic acid (Sigma, St. Louis, MO, USA) and peptides (5 µM, 50 µM) was replaced, and the cells were cultured for 48 hours. After culture, the cells were harvested, and RNA was extracted using Trizol (Thermo Fisher Scientific, USA). […]"}, "C2C12 cells [4]": {"test_system": "C2C12 cells", "assay": "Microscopic analysis of morphology of differentiation-induced myoblasts (myotube formation)", "details": "differentiation medium, three days", "experimental": "C2C12 cells (mouse-derived myoblasts) were cultured in DMEM medium containing 1% P/S and 2% BCS (bovine calf serum). When cell confluency reached approximately 80%, cells were seeded into 6-well culture plates at a concentration of 5 x 10^5 cells/2 ml. Subsequently, when cell confluency reached 100% in a 6-well culture plate, the differentiation medium (1% P/S, 2% horse serum) and peptides (5µM, 50µM) were replaced. After that, the differentiation medium (1% P/S, 2% horse serum) and peptides (5µM, 50µM) were replaced every two days, and images of the cells were taken using an optical microscope (FLEXACAM C1, Leica, Germany) three days after differentiation induction.\nThe above experiment aimed to determine whether cell differentiation is promoted when peptides are treated simultaneously with differentiation induction in C2C12 myoblasts. Cell morphology was examined using a microscope, and the thickness of the formed myotubes was measured."}}, "data": [{"smiles": "C[C@@H](O)[C@H](NC(=O)CNC(=O)[C@@H](N)Cc1c[nH]cn1)C(=O)N[C@@H](Cc1ccc(O)cc1)C(=O)O", "values": [{"measurement": "expression of CDK4 gene", "setting": "C2C12 cells [1]", "value": "significantly increased"}, {"measurement": "expression of NDRG2 gene", "setting": "C2C12 cells [1]", "value": "significantly increased"}, {"measurement": "expression of PCNA gene", "setting": "C2C12 cells [1]", "value": "significantly increased"}, {"measurement": "expression level of GLUT4", "setting": "3T3-L1 cells [2]", "value": "increased"}, {"measurement": "expression level of p70S6K", "setting": "3T3-L1 cells [2]", "value": "decreasing"}, {"measurement": "expression level of pIRS(Ser302)", "setting": "3T3-L1 cells [2]", "value": "decreasing"}, {"measurement": "expression level of pIRS(Tyr612)", "setting": "3T3-L1 cells [2]", "value": "increased"}, {"measurement": "expression of CPT1 (gene)", "setting": "3T3-L1 cells [3]", "value": "increased again"}, {"measurement": "expression of PGC1α (gene)", "setting": "3T3-L1 cells [3]", "value": "increased again"}, {"measurement": "myoblast differentiation compared to the control group (differentiation induction, Non)", "setting": "C2C12 cells [4]; peptide 5 µM, 50 µM", "value": "further promoted"}, {"measurement": "myotube formation", "setting": "C2C12 cells [4]; peptide at high concentrations", "value": "a large number of long and thick myotubes were formed"}]}]}
